Assay: Body weight in HT-29 xenograft study (Example 1)
Assay type: in vivo, CB17SCID male mice
Method: 48 CB17SCID male mice were implanted with 2.5×10^6 HT29 cells. Growth of the tumor was calculated for each animal using a caliper and the equation: V=π×ab^2/6.
Mouse weight and tumor volume measurements were taken on days 0, 3, 6, 9, 12, 15, 18, 21, and 22 following randomization.

## [2H]C([2H])([2H])c1cc(Br)cc2c1O[C@H](C(F)(F)F)C(C(=O)O)=C2 [Compound A01, (S)-6-bromo-8-trideuteromethyl-2-(trifluoromethyl)-2H-chromene-3-carboxylic acid]
Day 3, A01 10 mg/kg oral daily
  Body weight: 22.7 g
Day 9, A01 1 mg/kg oral daily
  Body weight: 20.7 g
Day 9, A01 10 mg/kg oral daily
  Body weight: 21.2 g
Day 12, A01 1 mg/kg oral daily
  Body weight: 21.7 g
Day 12, A01 10 mg/kg oral daily
  Body weight: 20.8 g
Day 15, A01 10 mg/kg oral daily
  Body weight: 21.4 g
Day 18, A01 10 mg/kg oral daily
  Body weight: 21.4 g
Day 21, A01 10 mg/kg oral daily
  Body weight: 21.4 g
Day 22, A01 10 mg/kg oral daily
  Body weight: 21.7 g
